Seven molecules from patent US20140336116A1 (GLYTECH, published 2014) can be followed below.

Amino acid sequences for entries named in this document (tags omitted). A change or cut given only in a name is not applied to a line headed by its entry.
UniProt P30872: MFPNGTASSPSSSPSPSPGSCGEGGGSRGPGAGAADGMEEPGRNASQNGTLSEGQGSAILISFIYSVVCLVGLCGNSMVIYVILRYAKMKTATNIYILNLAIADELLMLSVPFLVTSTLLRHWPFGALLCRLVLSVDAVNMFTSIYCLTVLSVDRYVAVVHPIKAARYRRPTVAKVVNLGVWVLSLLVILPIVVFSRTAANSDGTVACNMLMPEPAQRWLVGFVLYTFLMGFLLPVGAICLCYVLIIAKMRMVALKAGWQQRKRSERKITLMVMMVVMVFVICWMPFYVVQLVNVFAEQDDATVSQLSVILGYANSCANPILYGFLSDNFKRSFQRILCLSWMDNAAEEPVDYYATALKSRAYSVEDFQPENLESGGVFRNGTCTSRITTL
UniProt P30874: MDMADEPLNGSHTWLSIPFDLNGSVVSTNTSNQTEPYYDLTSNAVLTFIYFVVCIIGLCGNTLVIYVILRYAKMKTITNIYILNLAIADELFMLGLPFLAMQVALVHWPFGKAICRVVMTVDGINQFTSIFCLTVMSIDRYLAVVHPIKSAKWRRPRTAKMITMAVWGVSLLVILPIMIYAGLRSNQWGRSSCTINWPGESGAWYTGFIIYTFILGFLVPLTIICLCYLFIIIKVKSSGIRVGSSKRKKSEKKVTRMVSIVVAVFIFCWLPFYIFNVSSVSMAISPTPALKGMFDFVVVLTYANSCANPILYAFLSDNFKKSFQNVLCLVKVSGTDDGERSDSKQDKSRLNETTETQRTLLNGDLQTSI
UniProt P32745: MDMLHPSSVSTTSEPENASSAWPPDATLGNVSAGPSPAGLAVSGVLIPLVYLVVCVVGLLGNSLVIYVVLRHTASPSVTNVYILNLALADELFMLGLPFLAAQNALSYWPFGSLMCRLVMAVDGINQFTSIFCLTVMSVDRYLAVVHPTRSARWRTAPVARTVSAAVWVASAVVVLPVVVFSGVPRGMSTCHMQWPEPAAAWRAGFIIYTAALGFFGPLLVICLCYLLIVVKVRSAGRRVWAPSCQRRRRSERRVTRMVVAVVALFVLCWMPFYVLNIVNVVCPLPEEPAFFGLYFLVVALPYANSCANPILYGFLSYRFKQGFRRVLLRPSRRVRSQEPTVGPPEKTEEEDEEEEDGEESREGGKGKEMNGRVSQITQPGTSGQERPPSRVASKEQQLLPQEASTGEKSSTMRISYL
UniProt P35346: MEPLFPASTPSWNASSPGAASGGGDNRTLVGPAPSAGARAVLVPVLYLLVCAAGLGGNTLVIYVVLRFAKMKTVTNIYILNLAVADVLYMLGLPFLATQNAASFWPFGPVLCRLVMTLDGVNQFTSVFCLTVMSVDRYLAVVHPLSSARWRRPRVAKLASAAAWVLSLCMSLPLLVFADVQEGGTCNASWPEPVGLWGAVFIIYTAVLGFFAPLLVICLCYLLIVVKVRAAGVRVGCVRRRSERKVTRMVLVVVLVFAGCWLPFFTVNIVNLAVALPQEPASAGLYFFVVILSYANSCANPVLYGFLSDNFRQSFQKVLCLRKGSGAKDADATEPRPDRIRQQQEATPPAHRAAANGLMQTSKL

Assay [1] concerns the target T1, somatostatin receptor SSTR1 (Human, UniProt P30872 1-391).
T1 construct: whole, on cells
The assay can be described thus: radioligand competition. (In general: In a radioligand displacement assay an active substance lowers the binding of a labelled ligand.)

Assay [2] has as its target T2, somatostatin receptor SSTR2 (Human, UniProt P30874 1-369).
T2 construct: whole, on cells
Kind of assay: radioligand competition.

The target of assay [3] is T3, somatostatin receptor SSTR3 (Human, UniProt P32745 1-418).
T3 construct: whole, on cells
Kind of assay: radioligand competition.

In assay [4] the target is T4, somatostatin receptor SSTR5 (Human, UniProt P35346 1-364).
T4 construct: whole, on cells
The assay can be described thus: radioligand competition.

Assay [5] deals with T1, somatostatin receptor SSTR1. The assay can be described thus: radioligand competition. This is another data set of the same source.
In assay [6] the target is T3, somatostatin receptor SSTR3. The assay can be described thus: radioligand competition. This is another data set of the same source.
The target in assay [7] is T4, somatostatin receptor SSTR5. Kind of assay: radioligand competition. This is another data set of the same source.
The target of assay [8] is T2, somatostatin receptor SSTR2. The assay can be described thus: radioligand competition; upper end tied to Example 22 by Table 3A.

Where two headings read alike, the source gives them in different places.

Consider SANSNPAMAPCERKAGCKNFFWKTFTSC (disialo sugar chain on Cys11; disulfide Cys17-Cys28) [R11C(disialo)-SRIF28], for which the Ki in assay [1] is 18.2 nM; in assay [2], 0.735 nM; in assay [3], 2.17 nM; in assay [4], 2.07 nM. Further, the IC50 was determined as 1.38 nM in assay [2], 6.34 nM in assay [3] and 3.65 nM in assay [4].
For the molecule SANSNPAMAPRERKAGCKNFFWKTFTCC (disialo sugar chain on Cys27; disulfide Cys17-Cys28) [S27C(disialo)-SRIF28], the IC50 in assay [1] was 28.4 nM; in assay [2], 0.326 nM; in assay [3], 6.77 nM; in assay [4] it was 4.94 nM. Moreover, the Ki was 23.5 nM in assay [1] and 2.31 nM in assay [3].
Take CANSNPAMAPRECKAGCKNFFWKTFTSC (disialo sugar chain on Cys1 and Cys13; disulfide Cys17-Cys28) [S1C(disialo)•R13C(disialo)-SRIF28]: the IC50 in assay [5] came out at 177 nM; in assay [7], 14.7 nM. For the same molecule, the Ki in assay [5] is 147 nM; in assay [6], 3.77 nM; in assay [7], 8.33 nM; in assay [8] it was 0.0119 to 3.33 nM.

B1: S1-4C(disialo)-SRIF28 (peptide)
peptide: CCCCANSNPAMAPRERKAGCKNFFWKTFTSC
modifications: Ser1 replaced by four consecutive Cys each with a disialo sugar chain; disulfide Cys17-Cys28
As for B1, in assay [2], the IC50 was 3.76 nM. Further, the figures for the Ki in assay [3] and in assay [4] were 3.43 nM and 5.82 nM, respectively.

B2: C(disialo)-K-SRIF14 (peptide)
peptide: CKAGCKNFFWKTFTSC
modifications: disialo sugar chain on the N-terminal Cys of the added Cys-Lys-; disulfide Cys17-Cys28
For the molecule B2, the IC50 in assay [1] was 20.7 nM; in assay [2] it was 1.97 nM; in assay [3], 3.55 nM; in assay [4] it was 3.52 nM. The Ki in assay [1] stood at 17.2 nM; in assay [2] it was 1.05 nM; in assay [3], 1.21 nM; in assay [4] it was 1.99 nM.

B3: 2C(disialo)-R-K-SRIF14 (peptide)
peptide: CCRKAGCKNFFWKTFTSC
modifications: disialo sugar chain on each of the two N-terminal Cys of the added Cys-Cys-Arg-Lys-; disulfide Cys17-Cys28
B3: the IC50 is 5.35 nM in assay [2], 9.74 nM in assay [3] and 6.16 nM in assay [4]. Also, the Ki in assay [2] stood at 2.84 nM; in assay [3], 3.33 nM; in assay [4] it was 3.48 nM.
For the molecule CSANSNPAMAPRERKAGCKNFFWKTFTSC (disialo sugar chain on the Cys added before Ser1; disulfide Cys17-Cys28) [C(disialo)-SRIF28], the IC50 in assay [1] was found to be 5.57 nM; in assay [2], 0.478 nM; in assay [3] it was 2.55 nM; in assay [4] it was 2.62 nM. The Ki in assay [1] is 4.61 nM; in assay [2], 0.255 nM; in assay [4], 1.48 nM.

The Ki is the equilibrium dissociation constant of an inhibitor or competing ligand from its target. A low value points to tighter binding. By IC50 is commonly meant the concentration that gives 50% inhibition. Higher therefore signals a need for much substance.
